These results are taken from paper PMC7252619 (PLoS ONE, 2020).

By UniProt entry, the sequences of proteins in these tests, tags left out. Residues count along the entry.
UniProt P35968, 20-1356: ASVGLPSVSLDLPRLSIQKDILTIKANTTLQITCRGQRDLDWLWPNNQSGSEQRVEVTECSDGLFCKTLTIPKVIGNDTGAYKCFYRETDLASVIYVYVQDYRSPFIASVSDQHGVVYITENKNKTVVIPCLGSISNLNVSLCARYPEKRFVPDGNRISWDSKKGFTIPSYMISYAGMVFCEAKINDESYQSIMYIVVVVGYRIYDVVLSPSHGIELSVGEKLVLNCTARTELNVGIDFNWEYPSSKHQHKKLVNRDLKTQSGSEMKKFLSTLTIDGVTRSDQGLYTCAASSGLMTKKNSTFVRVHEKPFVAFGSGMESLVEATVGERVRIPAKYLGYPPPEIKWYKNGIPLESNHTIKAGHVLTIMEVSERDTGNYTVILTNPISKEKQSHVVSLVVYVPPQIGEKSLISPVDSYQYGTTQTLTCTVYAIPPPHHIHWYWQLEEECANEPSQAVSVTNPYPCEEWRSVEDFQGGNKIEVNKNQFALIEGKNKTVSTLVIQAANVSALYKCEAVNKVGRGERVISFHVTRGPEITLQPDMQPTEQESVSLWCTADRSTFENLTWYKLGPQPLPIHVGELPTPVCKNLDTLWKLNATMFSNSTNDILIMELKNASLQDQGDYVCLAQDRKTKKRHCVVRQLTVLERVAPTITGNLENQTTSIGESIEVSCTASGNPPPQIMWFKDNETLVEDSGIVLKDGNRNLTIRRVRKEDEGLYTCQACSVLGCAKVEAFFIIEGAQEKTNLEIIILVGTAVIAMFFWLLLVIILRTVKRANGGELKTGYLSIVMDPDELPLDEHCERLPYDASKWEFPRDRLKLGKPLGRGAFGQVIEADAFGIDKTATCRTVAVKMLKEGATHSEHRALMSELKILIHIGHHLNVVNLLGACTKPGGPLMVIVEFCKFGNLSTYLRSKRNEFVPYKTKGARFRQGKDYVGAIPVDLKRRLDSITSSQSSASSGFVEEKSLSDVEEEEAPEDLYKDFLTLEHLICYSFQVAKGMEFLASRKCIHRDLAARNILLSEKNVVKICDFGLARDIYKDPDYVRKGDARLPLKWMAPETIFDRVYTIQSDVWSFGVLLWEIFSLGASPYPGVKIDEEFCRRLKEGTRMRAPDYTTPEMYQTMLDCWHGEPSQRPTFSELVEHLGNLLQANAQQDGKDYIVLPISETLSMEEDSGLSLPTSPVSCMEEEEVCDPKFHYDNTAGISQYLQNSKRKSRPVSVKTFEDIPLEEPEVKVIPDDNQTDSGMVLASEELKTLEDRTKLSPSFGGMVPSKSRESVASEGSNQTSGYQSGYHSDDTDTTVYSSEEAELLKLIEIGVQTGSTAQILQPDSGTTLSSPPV

One assay concerns the target VEGFR2 (Homo sapiens, UniProt P35968). The experiment in a line: Kinase activity test (ReactionBiology), % enzyme activity relative to DMSO.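 Note: VEGFR2 was one member of a ten-kinase screening panel testing marketed FDA-approved drugs.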
For assay [1], the system named is human PBMCs (responder cells) with RPMI1788 stimulator cells. The experiment in a line: Mixed Lymphocyte Reaction (MLR, T cell assay), 3H-thymidine incorporation. It counts as cell-based. Conditions: ratio of IC50 values.
The mark [2] stands for this setting: read-out: % Enzyme Activity (relative to DMSO controls), Average.
The mark [3] stands for this setting: read-out: % Enzyme Activity (relative to DMSO controls), Data 1.
Where [4] appears, read: read-out: % Enzyme Activity (relative to DMSO controls), Data 2.

Each structure is given as a SMILES string. Read-outs that look alike come from different tables or passages of the source.

Regarding `Oc1c(Cl)cc(Cl)c(Cl)c1Cc1c(O)c(Cl)cc(Cl)c1Cl` [Hexachlorophene, reference compound], the remaining activity at 1 µM on VEGFR2 (setting [2]) was 109%; on VEGFR2 (setting [3]) it was 110%; on VEGFR2 (setting [4]), 109%; on VEGFR2 (read-out: % Enzyme activity at 1μM), 110%. Further, the remaining activity at 10 µM worked out at 5.14% at VEGFR2 (setting [2]), 5.15% on VEGFR2 (setting [3]), 5.13% on VEGFR2 (setting [4]) and 5.14% on VEGFR2 (read-out: % Enzyme activity at 10μM). Further, the “Selectivity Index (SI) MLR/B-cell” value in assay [1] is listed as 0.27.
